The values below come from US20080146555A1, “Uses of Kinase Inhibitors and Compositions Thereof” (GPC Biotech, Inc, priority 2004, published 2008).

This experiment deals with NCI-Adr resistant. The experiment can be described thus: SRB cytotoxicity, P-glycoprotein expressing cells with and without verapamil. The experiment is classed as cell-based. Conditions: ratio of mean IC50. As for the experimental part: In these experiments, the P-glycoprotein expressing NCI-Adr resistant subline (Vickers et al., 1989. Mol Endocrinology 3 (1):157-164) was used. […] Briefly, cells were plated in 96 well dishes 24 hours prior to compound addition. Where noted, they were exposed to verapamil for 4 hours prior to compound addition and then throughout the treatment period (72 hours). […] The plates were then washed 5 times with water and 100 μl of a Sulforhodamine B solution (4%) was added to each well. The plate was then incubated for 10 minutes at room temperature before removal of unbound dye by washing with 1% acetic acid.

Take `CC(=O)O[C@@]12CO[C@@H]1C[C@H](O)[C@@]1(C)C(=O)[C@H](O)C3=C(C)[C@@H](OC(=O)[C@H](O)[C@@H](NC(=O)OC(C)(C)C)c4ccccc4)C[C@@](O)([C@@H](OC(=O)c4ccccc4)[C@H]21)C3(C)C` [Taxotere, N-debenzoyl-N-tert-butoxycarbonyl-10-deacetyl paclitaxel, reference compound]: the “RR (relative resistance) NCI-Adr resistant −/+ verapamil” value is on record as 91.2.
